Assay results as given in patent US10968214B2, “KRas G12C inhibitors” (Eli Lilly and Company, priority 2018, dated 2021).

Assays:
Assay type in all cases: in vivo
Details in all cases: Cetuximab 20 mg/kg BIWx4
SW837 xenograft = assay: Anti-tumor growth activity, SW837 colorectal xenograft
MiaPaca-2 xenograft = assay: Anti-tumor growth activity, MiaPaca-2 pancreatic xenograft
SW1463 xenograft = assay: Anti-tumor growth activity, SW1463 colorectal xenograft

What does the source list for cetuximab [reference compound]?
In Vivo Anti-Tumor Activities (SW837 xenograft): 58.49; In Vivo Anti-Tumor Activities (MiaPaca-2 xenograft): −20.8; In Vivo Anti-Tumor Activities (SW1463 xenograft): 81.1
